Molecular target: Phosphatidylinositol 4,5-bisphosphate 3-kinase catalytic subunit alpha isoform (Homo sapiens, UniProt P42336)
Assay: Inhibition of recombinant PI3K alpha (unknown origin) using PIP2 as substrate by fluorescence polarization assay
Settings: read-out: Ki(app)

Protein sequences, listed by entry. Tags and fused reporters are not part of them.
UniProt P42336, whole entry: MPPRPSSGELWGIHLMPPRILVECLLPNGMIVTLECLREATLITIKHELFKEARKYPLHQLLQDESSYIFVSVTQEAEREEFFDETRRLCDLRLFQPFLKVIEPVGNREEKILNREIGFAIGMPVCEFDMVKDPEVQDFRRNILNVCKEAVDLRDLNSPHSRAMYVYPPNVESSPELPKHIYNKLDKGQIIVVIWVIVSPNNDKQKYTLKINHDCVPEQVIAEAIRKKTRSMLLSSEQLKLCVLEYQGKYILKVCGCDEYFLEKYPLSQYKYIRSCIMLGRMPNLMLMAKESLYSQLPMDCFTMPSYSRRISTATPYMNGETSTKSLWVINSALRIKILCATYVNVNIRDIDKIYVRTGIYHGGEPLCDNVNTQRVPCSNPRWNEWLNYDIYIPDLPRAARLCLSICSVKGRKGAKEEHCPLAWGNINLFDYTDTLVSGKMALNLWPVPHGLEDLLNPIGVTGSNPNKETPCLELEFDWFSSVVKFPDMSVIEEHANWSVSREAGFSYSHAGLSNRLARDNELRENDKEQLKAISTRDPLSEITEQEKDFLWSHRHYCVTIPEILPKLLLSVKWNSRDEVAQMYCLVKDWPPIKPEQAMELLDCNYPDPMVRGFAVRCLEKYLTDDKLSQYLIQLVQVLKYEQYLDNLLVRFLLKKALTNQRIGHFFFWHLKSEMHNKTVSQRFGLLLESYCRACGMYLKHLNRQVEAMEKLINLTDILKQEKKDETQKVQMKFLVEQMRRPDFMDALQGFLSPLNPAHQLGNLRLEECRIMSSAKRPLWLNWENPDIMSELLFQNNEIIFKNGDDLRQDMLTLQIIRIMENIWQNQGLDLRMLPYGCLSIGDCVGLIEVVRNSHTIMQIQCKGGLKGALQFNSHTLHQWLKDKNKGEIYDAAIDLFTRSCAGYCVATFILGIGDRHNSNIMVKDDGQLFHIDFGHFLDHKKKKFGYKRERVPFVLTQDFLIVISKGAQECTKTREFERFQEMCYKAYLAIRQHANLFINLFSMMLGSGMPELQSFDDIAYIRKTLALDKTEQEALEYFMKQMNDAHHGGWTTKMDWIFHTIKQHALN

Cc1nc(-c2cn3c(n2)-c2ccc(-c4cnn(C(C)(C)C(N)=O)c4)cc2OCC3)n(C(C)C)n1 [TASELISIB]
Ki: 0.3 nM
